{"source": "paper PMC10706087", "about": "“The Subtype Selectivity in Search of Potent Hypotensive Agents among 5,5-Dimethylhydantoin Derived α1-Adrenoceptors Antagonists” (International Journal of Molecular Sciences, 2023)", "target": "T1, human adrenergic receptor α1A (Homo sapiens, UniProt P35348)", "T1 sequence (P35348 1-466)": "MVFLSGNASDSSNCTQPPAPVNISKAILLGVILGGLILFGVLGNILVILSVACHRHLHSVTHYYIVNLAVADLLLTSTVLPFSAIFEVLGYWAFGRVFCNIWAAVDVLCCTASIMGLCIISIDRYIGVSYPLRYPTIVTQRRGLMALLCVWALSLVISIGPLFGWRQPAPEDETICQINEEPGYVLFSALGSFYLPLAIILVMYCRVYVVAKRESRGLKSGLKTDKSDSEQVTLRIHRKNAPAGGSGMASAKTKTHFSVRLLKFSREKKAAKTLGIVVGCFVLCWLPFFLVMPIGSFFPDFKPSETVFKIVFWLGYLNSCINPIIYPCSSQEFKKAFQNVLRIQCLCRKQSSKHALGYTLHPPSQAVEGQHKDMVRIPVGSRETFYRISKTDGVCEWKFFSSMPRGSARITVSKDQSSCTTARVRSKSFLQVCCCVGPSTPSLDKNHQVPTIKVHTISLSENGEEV", "test": "Intrinsic activity, aequorin luminescence functional assay at α1A-AR", "assay_type": "cell-based", "settings": "agonist/antagonist profile", "experimental": "The subtype selectivity for α1A and α1B was calculated as IC50(α1B-AR)/IC50(α1A-AR) and IC50(α1A-AR)/IC50(α1B-AR) ratio, respectively.\nIntrinsic activity at the α1-AR subtypes studies were performed using the cells expressing mitochondrially-targeted aequorin and one of the human adrenergic receptor α1A or α1B (PerkinElmer, Boston, MA, USA), according to the manufacturer’s instructions. For measurement, frozen cells were thawed and re-suspended in 10 mL of assay buffer containing 5 μM “Coelenterazine h”. This cell suspension was put in a 10 mL Falcon tube, fixed onto a rotating heel, and incubated overnight at rt in the dark (8 rpm; 45° angle). Cells were diluted with Assay Buffer to 5000 cells/20 μL. […] The light emitted was recorded for 20 s. […] Luminescence was measured using the multidetection microplate reader (POLARstar Omega, BMG LABTECH, Ortenberg, Germany).\nAll statistics were performed using GraphPad Prism, Version 6.0 (GraphPad Software, San Diego, CA, USA). In the radioligand binding study, data were analyzed by a one-site curve-fitting equation, and inhibition constants (Ki) values were calculated via the Cheng-Prusoff equation [63]. In functional studies, data were analyzed using a sigmoidal dose-response (variable slope) equation. Arterial blood pressure data were analyzed using a two-way ANOVA with Sidak’s post-hoc test for multiple comparisons. […]", "note": "Counter-ions that a name gives are not always drawn.", "data": [{"smiles": "COc1cc2nc(N3CCN(C(=O)c4ccco4)CC3)nc(N)c2cc1OC", "note": "[Prazosin, prazosin hydrochloride, reference compound]", "values": [{"measurement": "α1A-AR Profile", "value": "Antagonist"}]}]}
